{
  "source": "patent US20020136691A1",
  "about": "“Pharmacological evaluation test (PET) in animals for continuous assessment of physiological functions” (priority 2000, published 2002)",
  "system": "Sprague Dawley rats",
  "test": "CNS motility/activity recording by DSI telemetry",
  "type": "in vivo",
  "settings": "for Motility, % Change from Control: female rats",
  "procedure": "At the same time as cardiovascular recording was occurring, the motility of the rats in the metabolism cages was also determined using the DSI telemetry equipment. Recording is continuous over four days of compound dosing.\nActivity was evaluated as averaged day and night values. The values of the first eleven hours after start of treatment were averaged to give a value for “day”; the values of the second eleven hours were averaged to give a value for “night”. These day and night values as well as the difference “night-day” and the percent difference from day were summarized. Kruskal-Wallis tests were performed for comparing difference and percent difference in the three treatment groups.",
  "note": "Marks after values point to notes of the source that are not given here.",
  "data": [
    {"smiles": "C[C@H](N)Cc1ccccc1", "note": "[d-amphetamine]", "values": [
      {"measurement": "Motility, day versus night", "setting": "2 and 8 mg/kg p.o., subacute", "result": "increased during the day as compared to the night"},
      {"measurement": "Motility, % Change from Control", "setting": "2 mg/kg p.o., day 1, period day", "result": "+391* %"},
      {"measurement": "Motility, % Change from Control", "setting": "2 mg/kg p.o., day 1, period night", "result": "+8%"},
      {"measurement": "Motility, % Change from Control", "setting": "2 mg/kg p.o., day 2, period day", "result": "+405* %"},
      {"measurement": "Motility, % Change from Control", "setting": "2 mg/kg p.o., day 2, period night", "result": "+5%"},
      {"measurement": "Motility, % Change from Control", "setting": "2 mg/kg p.o., day 3, period day", "result": "+390* %"},
      {"measurement": "Motility, % Change from Control", "setting": "2 mg/kg p.o., day 3, period night", "result": "−31", "unit": "%"},
      {"measurement": "Motility, % Change from Control", "setting": "2 mg/kg p.o., day 4, period day", "result": "+320* %"},
      {"measurement": "Motility, % Change from Control", "setting": "2 mg/kg p.o., day 4, period night", "result": "−47", "unit": "%"},
      {"measurement": "Motility, % Change from Control", "setting": "8 mg/kg p.o., day 1, period day", "result": "+194* %"},
      {"measurement": "Motility, % Change from Control", "setting": "8 mg/kg p.o., day 1, period night", "result": 0, "unit": "%"},
      {"measurement": "Motility, % Change from Control", "setting": "8 mg/kg p.o., day 2, period day", "result": "+175* %"},
      {"measurement": "Motility, % Change from Control", "setting": "8 mg/kg p.o., day 2, period night", "result": "−22", "unit": "%"},
      {"measurement": "Motility, % Change from Control", "setting": "8 mg/kg p.o., day 3, period day", "result": "+182* %"},
      {"measurement": "Motility, % Change from Control", "setting": "8 mg/kg p.o., day 3, period night", "result": "−29", "unit": "%"},
      {"measurement": "Motility, % Change from Control", "setting": "8 mg/kg p.o., day 4, period day", "result": "+255* %"},
      {"measurement": "Motility, % Change from Control", "setting": "8 mg/kg p.o., day 4, period night", "result": "−55", "unit": "%"}
    ]}
  ]
}
